# Data: US9732097B2, “Process for the synthesis of a phosphoinositide 3-kinase inhibitor” (Incyte Corporation, priority 2015, dated 2017)
# Biological target: human JAK1 (Homo sapiens, UniProt P23458)
# Experiment: In vitro JAK kinase assay (Example D, HTRF), JAK1
# Format: biochemical
# Conditions: 1 mM ATP
smiles,measurement,value
"CN(C)Cc1cc(F)cc(OC2CCN(CC(CC#N)n3cc(-c4ncnc5[nH]ccc45)cn3)CC2)c1 (single isomer, unassigned) [compound 14, 4-(4-{3-[(dimethylamino)meth-yl]-5-fluorophenoxy}piperidin-1-yl)-3-[4-(7H-pyrrolo[2,3-d]pyrimidin-4-yl)-1H-pyrazol-1-yl]butanenitrile]",IC50,< 10 nM
